Assay results taken from article PMC11531485, “Examining prestructured β-actin peptides as substrates of histidine methyltransferase SETD3” (Scientific Reports, 2024).

Chains of the proteins cited; added tags and fusions are not shown.
UniProt Q86TU7, whole entry: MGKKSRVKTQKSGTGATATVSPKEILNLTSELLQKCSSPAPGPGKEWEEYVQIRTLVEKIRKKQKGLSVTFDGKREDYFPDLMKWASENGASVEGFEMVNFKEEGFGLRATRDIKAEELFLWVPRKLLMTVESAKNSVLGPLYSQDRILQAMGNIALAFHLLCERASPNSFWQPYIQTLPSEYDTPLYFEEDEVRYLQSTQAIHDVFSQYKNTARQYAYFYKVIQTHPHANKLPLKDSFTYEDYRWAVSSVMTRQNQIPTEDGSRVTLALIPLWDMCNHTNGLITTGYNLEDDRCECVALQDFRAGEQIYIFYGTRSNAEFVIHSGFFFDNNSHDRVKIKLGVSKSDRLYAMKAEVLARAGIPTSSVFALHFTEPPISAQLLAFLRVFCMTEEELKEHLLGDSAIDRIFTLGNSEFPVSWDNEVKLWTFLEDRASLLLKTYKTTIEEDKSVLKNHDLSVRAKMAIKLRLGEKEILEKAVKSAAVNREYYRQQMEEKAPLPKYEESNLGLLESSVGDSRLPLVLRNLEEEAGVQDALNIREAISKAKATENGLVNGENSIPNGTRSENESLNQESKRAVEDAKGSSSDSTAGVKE

What was measured:
human SETD3 [1] = biological target: T1, human SETD3 (Homo sapiens, UniProt Q86TU7); assay: MALDI-TOF MS methylation kinetics assay (Michaelis-Menten, steady state)
Description: Catalytic efficiencies were explored for SETD3-catalyzed methylation of linear βA peptides 1, 6, 8 and 10 (Fig. 5; Table 1). Kinetic parameters were determined using MALDI-TOF MS assays under steady-state conditions by incubation with saturating amounts of SAM (100 µM)[23]. Addition of SETD3 (200 nM) to varying concentrations of linear βA peptides (0–150 µM) in reaction buffer initiated the reaction, upon which the mixture was incubated at 37 °C and quenched at timepoints that guarantee v0-reaction rates for SETD3-catalyzed methylation.
Fig. 5 Michaelis–Menten kinetics of linear βA peptides at varying concentrations (3.125-150 µM) by SETD3 (200 nM) in presence of saturating amounts of SAM (100 µM) in reaction buffer (25 mM Tris, 20 mM NaCl, pH = 9.0) at 37 °C.
Kinetics evaluation was carried out with a MALDI-TOF MS assay under steady state conditions. βA peptides (3.125–150 µM) and SAM (100 µM) were dissolved in methylation buffer (25 mM Tris, 20 mM NaCl, pH = 9.0), upon which the reaction was initiated by addition of SETD3. Reactions were incubated at 37 °C and shaken at 750 rpm Eppendorf Thermomixer C for 30 min, upon which the reactions were quenched by addition of 10% TFA in MilliQ water (1:1). Reactions were aliquoted and mixed with α-cyano-4-hydroxycinnamic acid dissolved in MilliQ H2O and ACN (1:1, v/v) with 0.1% TFA. The aliquots were loaded onto a MTP 384 polished steel target for MALDI-TOF analysis using a UltrafleXtreme. Methylated product was quantified by determining the combined integrals of the various ionic species of the methylated product. Kinetic parameters were subsequently determined by plotting V0 values and actin peptide concentrations and fitting them to the Michaelis–Menten equation using GraphPad Prism software. Experiments were performed in duplicate and values are reported as mean [drawing 1] standard error (SE) (Figs. S3-S4).

human SETD3 [2] = biological target: T1, human SETD3; assay: MALDI-TOF MS enzymatic substrate scope assay (SETD3-catalyzed methylation of βA peptides); format: biochemical; conditions: 1 µM SETD3, 10 µM βA peptide, 100 µM SAM, 25 mM Tris, 20 mM NaCl, pH 9.0, 37 °C
Description: We examined conformationally restrained βA peptides and linear controls as substrates for the recombinantly expressed human SETD3 employing MALDI-TOF MS to detect a characteristic + 14 Da mass increase upon methylation. Enzymatic reactions were evaluated using standard conditions (1 µM SETD3, 10 µM βA, 100 µM SAM) in methylation buffer (25 mM Tris, 20 mM NaCl, pH = 9.0 at 37 °C)[21]. The enzymatic reaction was quenched with 10% TFA in MilliQ water (1:1 v/v) at 1 h and 3 h before mass spectrometric analysis (Figs . 4 and S3-S4). […] Similarly, linear lactam controls 6 and 8, which substitute βA-I75 with a primary amine (Orn/Lys) were completely methylated within an hour (Fig. S4G, I). […] Finally, azide-alkyne Cu^I-mediated Huisgen 1,3-dipolar cycloaddition yields peptide 11 that was poorly (14%) methylated by SETD3 after 3 h under standard conditions (Figs. 4L and S4L). […]
SETD3 substrate scope experiments towards βA peptides were performed by incubation of βA peptides (10 µM) in methylation buffer (25 mM Tris, 20 mM NaCl, pH = 9.0) in the presence of SAM (100 µM) and SETD3 (1 µM) in a final volume of 50 µL for 1 and 3 h at 37 °C while shaking at 750 rpm in an Eppendorf Thermomixer C. […] The aliquots were loaded onto a MTP 384 polished steel target for MALDI-TOF analysis using a UltrafleXtreme and conversion to methylated product was monitored.

[3] = 200 nM SETD3, 3.125-150 µM peptide, 100 µM SAM, 25 mM Tris, 20 mM NaCl, pH 9.0, 37 °C, MALDI-TOF MS, duplicate, mean ± SE

Q: Which Km (human SETD3 [1]; [3]) does the source give for CC[C@H](C)[C@H](NC(=O)[C@@H]1CCCN1C(=O)[C@H](Cc1ccc(O)cc1)NC(=O)[C@H](CCCCN)NC(=O)[C@H](CC(C)C)NC(=O)[C@@H](N)[C@@H](C)O)C(=O)N[C@@H](CCC(=O)O)C(=O)N[C@@H](Cc1c[nH]cn1)C(=O)NCC(=O)N[C@@H](CCCCN)C(=O)N[C@H](C(=O)N[C@H](C(=O)N[C@@H](CC(N)=O)C(=O)N[C@@H](Cc1c[nH]c2ccccc12)C(=O)N[C@@H](CC(=O)O)C(=O)N[C@@H](CC(=O)O)C(N)=O)[C@@H](C)O)C(C)C here?
A: 25.1 µM

Q: What about the kcat (human SETD3 [1]; [3]) of the same compound?
A: 4.1 ± 0.158 s⁻¹

Q: What about the kcat/Km (human SETD3 [1]; 200 nM SETD3, 3.125-150 µM peptide, 100 µM SAM, pH 9.0, 37 °C) of the same compound?
A: 163000 M⁻¹ s⁻¹

Q: What about the “fold increase in catalytic efficiency (kcat/Km) relative to native βA-H73 sequence” value (human SETD3 [1]; same conditions as Table 1) of the same compound?
A: 1.7 fold

Q: And the “SETD3-catalyzed methylation (conversion) within 1 h” value (human SETD3 [2])?
A: completely methylated
